We go through 100 molecules from PubChem BioAssay AID624037 (The Scripps Research Institute Molecular Screening Center, 2012).

Sequences of proteins named here, by UniProt entry; tags and fusion partners are left off.
UniProt P08912, whole entry, looked up: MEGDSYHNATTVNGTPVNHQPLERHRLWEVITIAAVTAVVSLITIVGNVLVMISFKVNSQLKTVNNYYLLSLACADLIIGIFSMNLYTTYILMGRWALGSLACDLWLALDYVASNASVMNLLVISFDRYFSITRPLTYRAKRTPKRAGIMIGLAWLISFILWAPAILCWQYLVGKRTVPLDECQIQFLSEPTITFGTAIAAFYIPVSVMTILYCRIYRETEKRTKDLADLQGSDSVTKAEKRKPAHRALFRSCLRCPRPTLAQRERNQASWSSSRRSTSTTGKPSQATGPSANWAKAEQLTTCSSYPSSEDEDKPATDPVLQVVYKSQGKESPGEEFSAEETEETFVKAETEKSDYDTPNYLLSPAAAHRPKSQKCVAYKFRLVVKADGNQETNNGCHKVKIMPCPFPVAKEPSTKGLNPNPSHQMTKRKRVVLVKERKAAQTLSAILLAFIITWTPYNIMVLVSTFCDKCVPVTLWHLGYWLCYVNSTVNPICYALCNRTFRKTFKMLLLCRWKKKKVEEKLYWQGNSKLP

The entries are a selection whose mix differs from that of the whole data set. The source made the active and inactive calls.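 Rule for the calls: active = activation above the run's mean over test compounds plus 3 SD (cut at about 23% in these data); inactive = the rest.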

The target in this test is Muscarinic acetylcholine receptor M5 (Homo sapiens) (UniProt P08912). The test is described as follows: CHRM5 activators raising intracellular calcium – CHO-K1 cells, Fluo-8 calcium fluorescence, primary screen (AID 624037).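 Note: signal is peak over basal fluorescence ratio across the kinetic read.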 The conditions noted are these: CHO-K1 hM5 cells, at 3 µM, active compounds read high, 0% DMSO wells, 100% maximal acetylcholine response. (In general: Calcium flux is commonly read through the fluorescence of an indicator in the cells.)
For `O=C(COc1ccccc1)OC1CN2CCC1CC2` (stereo not given), the activation is inactive: -11.4%.

For `O=C(Nc1ccncc1[N+](=O)[O-])c1ccc([N+](=O)[O-])cc1[N+](=O)[O-]`, the activation was inactive: 0.79%.

As to `O=C(O)C(=O)c1ccc(N(CCCl)CCCl)cc1`, the activation was inactive: -2.14%.

Take `COP1(=S)c2c(C)nn(CCC#N)c2N=C(c2ccc(F)cc2)N1C` (stereo not given): the activation is inactive: -0.66%.

Take `COC(=O)C1(C)COP(=O)(N2CCCC2)OC1` (stereo not given): the activation is inactive: 1.8%.

Consider `CCC(C)N(CC(C)C)C(=S)SC(NC(C)=O)C(Cl)(Cl)Cl` (stereo not given), for which the activation is inactive: -8.04%.

Consider `CCOC(=O)c1ccc(NC(=O)C(C)(CCl)SC)cc1` (stereo not given), for which the activation was inactive: 1.04%.

For the molecule `O=C(OC1CN2CCC1CC2)c1cccc([N+](=O)[O-])c1` (stereo not given), the activation was inactive: -6.17%.

Consider `CSc1ccc(Nc2c([N+](=O)[O-])cc([N+](=O)[O-])cc2[N+](=O)[O-])cc1`, for which the activation was inactive: 4.27%.

As for `Cc1cc(SC(NC(=O)c2ccccc2)C(Cl)(Cl)Cl)nc(C(C)C)n1` (stereo not given), the activation was inactive: -1.66%.

`COP(=O)(OC)N1CC1c1ccccc1` (stereo not given): the activation is inactive: -1.71%.

Consider `CC1CCNP(=O)(N(CCCl)CCCl)O1` (stereo not given), for which the activation was inactive: 0.94%.

Regarding `C/C=C1/CC(C)C(C)(O)C(=O)OCC2CCN3CCC(OC1=O)C23` (stereo not given), the activation was inactive: -10.2%.

Turning to `CCOC(=O)Nc1ccc([As](=O)(O)O)c(O)c1`, the activation was inactive: -3.29%.

As to `O=C(O)C(O)c1ccc(N(CCCl)CCCl)cc1` (stereo not given), the activation was inactive: 2.27%.

For `O=[N+]([O-])c1ccc(Nc2ccc(Oc3ccc([N+](=O)[O-])cc3[N+](=O)[O-])cc2)c([N+](=O)[O-])c1`, the activation was inactive: -2.47%.

As to `O=P(Nc1ccccn1)(c1cccc2ccccc12)c1cccc2ccccc12`, the activation is inactive: 3.28%.

Regarding `Cc1cc(SC(NC=O)C(Cl)(Cl)Cl)ncn1` (stereo not given), the activation is inactive: 3.41%.

Take `CCOC(=O)Nc1cccc([As](=O)(O)O)c1`: the activation was inactive: -1.86%.

As to `Cc1ccc2nc3c(c(C)c2c1)CC(C(Cl)Cl)S3` (stereo not given), the activation was inactive: -4.95%.

`[N-]=[N+]=NC1CCCCC1NC(=O)c1cc([N+](=O)[O-])cc([N+](=O)[O-])c1` (stereo not given): the activation is inactive: 0.88%.

Regarding `Cc1ccc(OP(=O)(Nc2ccc([N+](=O)[O-])cn2)Oc2ccc(C)cc2)cc1`, the activation was inactive: -1.73%.

Consider `CC(Cc1ccc(O)cc1)NCC(O)c1cc(O)cc(O)c1` (stereo not given), for which the activation was inactive: -0.07%.

Take `O=[As](O)(c1ccc(O)cc1)c1ccccc1O`: the activation is inactive: -1.49%.

Turning to `C[As](=O)(O)c1cccc(C(=O)O)c1`, the activation is inactive: 0.66%.

In the case of `O=[N+]([O-])c1ccc(-c2cc([N+](=O)[O-])c(O)c([N+](=O)[O-])c2)cc1`, the activation is inactive: 1.07%.

As to `CC(C)NC(=O)NP(=O)(Oc1ccccc1)Oc1ccccc1`, the activation was inactive: -0.7%.

As to `O=C(OC1CN2CCC1CC2)c1cccc2[nH]cnc12` (stereo not given), the activation is inactive: -19%.

In the case of `CCN(CC)C(=S)SC(NC=O)C(Cl)(Cl)Cl` (stereo not given), the activation is inactive: -4.5%.

Regarding `O=[N+]([O-])c1cc([N+](=O)[O-])c(-c2ccn[nH]2)s1`, the activation was inactive: -0.98%.

With `COC(=O)C1(C)COP(=O)(N2CCCCCC2)OC1` (stereo not given), the activation is inactive: 1.71%.

`CC(C)c1ccc(OP(=O)(Nc2ccccn2)Oc2ccccc2F)cc1` (stereo not given): the activation is inactive: 5%.

In the case of `ClCCSc1nnc(-c2cccnc2)o1`, the activation was inactive: -1.71%.

On to `COc1ccc2nc(NP(=O)(c3ccccc3)c3ccccc3)sc2c1`, for which the activation was inactive: -2.17%.

As to `COc1cc(I)ccc1[As](=O)(O)O`, the activation was inactive: 0.49%.

Take `O=P1(N(CCCl)CCCl)OCCCN1CCCl` (stereo not given): the activation was inactive: 4.59%.

Regarding `O=P1(N(CCCl)CCCl)Nc2ccccc2N1`, the activation is inactive: -3.4%.

Regarding `O=C(OC1CN2CCC1CC2)C12CC3CC(CC(C3)C1)C2` (stereo not given), the activation is inactive: -13.8%.

Regarding `Cc1cc(=O)[nH]c(N[N+](=O)[O-])n1`, the activation was inactive: 1.25%.

Take `Cc1c2c(nc3ccccc13)SC(C(Cl)Cl)C2` (stereo not given): the activation was inactive: -3.55%.

As to `COc1ccc(N/C(=N/P(=O)(N2CCOCC2)N2CCOCC2)N2CCOCC2)cc1`, the activation was inactive: 0.42%.

On to `O=[N+]([O-])c1cc(Oc2ccc([N+](=O)[O-])cc2C(F)(F)F)cc([N+](=O)[O-])c1`, for which the activation is inactive: 0.64%.

For the molecule `Cc1cccc(OCC(=O)OC2CN3CCC2CC3)c1` (stereo not given), the activation was inactive: -10%.

In the case of `O=[As](O)(c1cccc(O)c1)c1cccc(O)c1`, the activation was inactive: -0.09%.

As for `O=[As](O)(O)c1cccnc1`, the activation was inactive: 0.39%.

As for `CS(=O)(=O)c1ccc(Cl)c(NC(=O)COC(=O)C(O)(c2ccccc2)c2ccccc2)c1`, the activation is inactive: 4.35%.

As for `O=C(OC1CN2CCC1CC2)c1ccc(Cl)cc1` (stereo not given), the activation is inactive: -18.8%.

On to `COc1cc(C2NCCC3(OCCO3)C2(C)C)cc(OC)c1OC` (stereo not given), for which the activation is inactive: -1.66%.

With `CCOP(=O)(Nc1cccc2ccccc12)OCC`, the activation is inactive: -1.98%.

For `C[C@H]1C(=O)O[C@@H]2CCN3CC=C(COC(=O)[C@](C)(O)[C@]1(C)O)[C@H]23`, the activation is inactive: -0.46%.

Turning to `CCCOP(=S)(Nc1nc(N)cc(=O)[nH]1)OCCC`, the activation is inactive: -0.63%.

Turning to `Nc1cccc2c([As](=O)(O)O)cccc12`, the activation is inactive: 0.19%.

As to `Cc1ccc(NCCc2c([N+](=O)[O-])cc([N+](=O)[O-])cc2[N+](=O)[O-])cc1`, the activation was inactive: -2.15%.

Take `Nc1ccccc1[As](=O)(O)c1ccccc1`: the activation was inactive: -3.33%.

As to `O=C(O)COc1ccc([As](=O)(O)O)cc1[N+](=O)[O-]`, the activation was inactive: 0.25%.

Take `CS(=O)(=O)c1cc([N+](=O)[O-])c2no[n+]([O-])c2c1`: the activation was inactive: -3.25%.

Turning to `CCOP1(=S)c2c(C)nn(CCC#N)c2N=C(c2ccccc2F)N1C` (stereo not given), the activation is inactive: -0.11%.

With `O=P(Nc1nccs1)(Oc1ccccc1)Oc1ccccc1`, the activation was inactive: -0.19%.

`O=P(Nc1nccs1)(c1ccccc1)c1nc2ccccc2s1` (stereo not given): the activation was inactive: 1.25%.

Regarding `O=[N+]([O-])c1ccc2c(c1)nnn2O`, the activation is inactive: -0.03%.

`CN(C)C(=O)c1cc([N+](=O)[O-])cc2c1-c1c(cc([N+](=O)[O-])cc1[N+](=O)[O-])C2=O`: the activation is inactive: 11%.

For the molecule `CN(C(=O)Cc1ccc(Cl)c(Cl)c1)[C@H]1CC[C@@]2(CCCO2)C[C@@H]1N1CCCC1`, the activation is inactive: -0.5%.

Regarding `N#CCCN(C(=O)COC(=O)C(O)(c1ccccc1)c1ccccc1)c1ccc(F)cc1`, the activation is inactive: 4.41%.

In the case of `CCOP1(=S)c2c(C)nn(CCC#N)c2N=C(c2ccc(F)cc2)N1C` (stereo not given), the activation is inactive: -0.12%.

`CN(C(=O)Cc1ccccc1)[C@@H]1CC[C@]2(CCCO2)C[C@H]1N1CCCC1`: the activation was inactive: 2.53%.

Take `NC(=O)Nc1ccc([As](=O)(O)O)cc1`: the activation is inactive: 0.06%.

As for `O=C(/C=C/c1ccccc1)OC1CN2CCC1CC2` (stereo not given), the activation was inactive: -19.9%.

With `CCCC1OP(=O)(Nc2ccccc2)OCC1CC` (stereo not given), the activation is inactive: 2.05%.

As to `Cc1nn(-c2ccccc2)c2c1P(=O)(N1CCOCC1)N(C)C(c1ccccc1)=N2` (stereo not given), the activation is inactive: 0.79%.

For the molecule `CC1CCC(C(C)C)C(OP(=O)(Nc2ccccn2)c2ccccc2)C1` (stereo not given), the activation was inactive: 5.79%.

For `Cc1ccc(C(=O)OC2CN3CCC2CC3)cc1` (stereo not given), the activation was inactive: -7.51%.

`O=[As](O)(c1cccs1)c1cccs1`: the activation was inactive: -1.94%.

For the molecule `Cc1ccc(OCC(=O)OC2CN3CCC2CC3)cc1` (stereo not given), the activation is inactive: -11.8%.

With `O=P1(Nc2ccc(Br)cn2)COc2ccccc2OC1`, the activation is inactive: 2.17%.

`NS(=O)(=O)c1cccc(NC(=O)COC(=O)C(O)(c2ccccc2)c2ccccc2)c1`: the activation was inactive: -2.7%.

Turning to `Nc1cccc([As](=O)(O)c2ccccc2)c1`, the activation is inactive: 0.85%.

As for `O=P1(Nc2ncccn2)COc2ccccc2OC1`, the activation is inactive: -2.9%.

Turning to `Cc1ccc(S(=O)(=O)N(CCCN)CCCc2c(C)nc(N)[nH]c2=O)cc1`, the activation is inactive: -3.23%.

For the molecule `O=P1(N(CCCl)CCCl)NCCC(C(F)(F)F)O1` (stereo not given), the activation was inactive: 2.15%.

Regarding `Clc1n[nH]nc1-c1nn[nH][15n]1`, the activation was inactive: -0.54%.

As for `CC(C)(C)C(=O)NC(Sc1ncccn1)C(Cl)(Cl)Cl` (stereo not given), the activation was inactive: 0.72%.

On to `CCOP(=O)(Nc1ccc(C)cn1)OCC`, for which the activation is inactive: -1.88%.

Turning to `CN(CCCl)Cc1cc(Cl)c(NC2=NCCN2)c(Cl)c1`, the activation was inactive: 0.85%.

As for `O=P1(Nc2ccccn2)COc2ccccc2OC1`, the activation was inactive: 3.53%.

With `CCC1=CC2Cc3nc4ccc(Cl)cc4c(N)c3C(C1)C2` (stereo not given), the activation is inactive: -21.9%.

As to `CCOP(=O)(NC(=NC(C)c1ccccc1)NC(C)c1ccccc1)OCC` (stereo not given), the activation was inactive: -3.67%.

As to `CC1(CBr)Cn2c(nc3ccccc3c2=O)S1` (stereo not given), the activation was inactive: -2.67%.

`CC(C)/C=N\N=C(\N)N[N+](=O)[O-]`: the activation was inactive: -1.86%.

For the molecule `CN(C(=O)Cc1ccc(Cl)c(Cl)c1)[C@@H]1CCCC[C@H]1N1CCCC1`, the activation is inactive: -1.15%.

Turning to `COc1ccccc1CNC(=O)COC(=O)C(O)(c1ccccc1)c1ccccc1`, the activation was inactive: -1.05%.

For the molecule `c1nnnn1CCn1cnnn1`, the activation is inactive: -1.44%.

On to `CC(C)C(=O)NC(Sc1ccccc1)C(Cl)(Cl)Cl` (stereo not given), for which the activation is inactive: -7.87%.

As to `O=P(Nc1nccs1)(c1ccccc1)c1ccccc1`, the activation was inactive: -0.46%.

Turning to `O=P(Nc1nc2ccccc2s1)(c1ccccc1)c1ccccc1`, the activation was inactive: -1.84%.

In the case of `C[C@H]1OP(=O)(Oc2ccccc2)[C@H](O)[C@H](O)[C@H]1N=[N+]=[N-]` (stereo not given in full), the activation is inactive: 4.43%.

As to `COc1ccc(N)c([N+](=O)[O-])c1[N+](=O)[O-]`, the activation was inactive: 1.89%.

Consider `Nc1ccc(CCCCOc2ccccc2)cc1`, for which the activation was inactive: 7.51%.

For `O=P(Nc1ccccn1)(c1ccc(Br)cc1)c1ccc(Br)cc1`, the activation is inactive: -0.83%.

Turning to `C(Cc1nn[nH]n1)Cc1nn[nH]n1`, the activation is inactive: 1.4%.

`Nc1ccc([As](=O)(O)c2ccc([N+](=O)[O-])cc2)cc1`: the activation is inactive: -1.23%.
